Reference: ChEMBL document CHEMBL2062477, “Dual-Specificity Phosphatase CDC25A/B Inhibitor Identified from a Focused Library with Nonelectrophilic Core Structure” (ACS Med Chem Lett, 2012)

How the values were obtained:
[1] = biological target: T1, M-phase inducer phosphatase 2 (Homo sapiens, UniProt P30305); assay: Inhibition of CDC25B in presence of 2 mM DTT
T1 sequence (P30305 whole entry): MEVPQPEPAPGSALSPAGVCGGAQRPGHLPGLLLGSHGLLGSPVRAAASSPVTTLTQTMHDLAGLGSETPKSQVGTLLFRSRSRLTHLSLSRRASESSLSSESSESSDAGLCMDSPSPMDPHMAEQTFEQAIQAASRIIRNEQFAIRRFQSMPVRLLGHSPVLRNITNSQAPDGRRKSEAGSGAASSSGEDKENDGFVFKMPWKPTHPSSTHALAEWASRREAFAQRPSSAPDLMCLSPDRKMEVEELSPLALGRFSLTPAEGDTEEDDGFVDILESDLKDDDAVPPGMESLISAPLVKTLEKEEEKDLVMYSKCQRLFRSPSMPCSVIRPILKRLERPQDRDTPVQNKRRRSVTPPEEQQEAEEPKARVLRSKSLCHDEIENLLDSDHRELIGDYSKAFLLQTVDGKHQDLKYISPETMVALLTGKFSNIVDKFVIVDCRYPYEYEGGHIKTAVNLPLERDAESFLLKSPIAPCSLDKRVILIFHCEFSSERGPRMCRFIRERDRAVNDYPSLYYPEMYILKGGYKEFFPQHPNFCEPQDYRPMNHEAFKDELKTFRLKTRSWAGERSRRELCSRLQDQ

[2] = biological target: T1, M-phase inducer phosphatase 2; assay: Inhibition of CDC25B

- IC50 [1]: 4.26 µM
- IC50 [2]: 4.26 µM
SMILES: CCCCCCCCCCCCCCCC(NCc1ccccc1O)=C1C(=O)OC(CO)C1=O (mixture of isomers)
